# Measured affinities in a library of Ab-14 heavy chain variants

The target is the same throughout: PDVDLGDISGINAS, from the HR2 region of SARS-CoV-2 spike.

Parent: Ab-14, a human scFv built as VH, a 15-residue (Gly4Ser)3 linker, VL. Only the CDRs of the heavy chain vary.
VH: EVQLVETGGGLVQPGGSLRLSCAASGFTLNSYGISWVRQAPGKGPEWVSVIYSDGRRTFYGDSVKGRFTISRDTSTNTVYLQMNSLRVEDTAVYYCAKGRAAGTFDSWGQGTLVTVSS
VL: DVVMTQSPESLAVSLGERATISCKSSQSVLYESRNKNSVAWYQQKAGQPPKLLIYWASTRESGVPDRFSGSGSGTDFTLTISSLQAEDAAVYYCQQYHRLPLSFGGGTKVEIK

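The starting antibody came from a phage panning campaign against this peptide. Library AAYL49 holds single substitutions and randomly drawn double and triple substitutions in the CDRs. In AlphaSeq, yeast of one mating type display the scFv and yeast of the other type display the target. Pairs that bind mate more often; barcode pairs of the diploids are counted by sequencing. The ratio of observed to expected reads was calibrated, replicate by replicate, on BCL2-family standards whose Kd was known from biolayer interferometry. Each pool was mated in three replicate cultures.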

The whole VH of each variant is written out. All variants listed here change I34 of the VH, counted from its first residue. Values are log10 of the apparent Kd in nM; lower means stronger binding. A mean of the replicates is given; it leaves out those without a signal. A pair that was not seen in that replicate is written "ND"; this usually means weak binding, but a binder can also be missed. Parent in this assay: reference entry 0.65, copy in this library 4.11 (one replicate of three). Background: pairings of library AAYL49 with three empty control strains gave a value in 15% of cases (median 4.06, 5th percentile 2.83). Values in that range, when seen in few replicates, are hard to tell from nonspecific mating.

| VH | replicates, log10 nM | log10 Kd (nM), mean |
|---|---|---|
| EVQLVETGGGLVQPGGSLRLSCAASGFTSNSYGASWVRQAPGKGPEWVSVIYSDGRRTFYGDSVKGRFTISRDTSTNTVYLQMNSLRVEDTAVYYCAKGRADGTFDSWGQGTLVTVSS | ND / ND / ND | ND |
| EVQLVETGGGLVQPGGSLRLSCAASGFTLNSYGWSWVRQAPGKGPEWVSVIYSDGRRTFYGQKVKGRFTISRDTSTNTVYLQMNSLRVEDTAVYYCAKGRAAGTFDSWGQGTLVTVSS | ND / 4.41 / ND | 4.41 |
| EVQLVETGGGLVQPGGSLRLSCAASGFTLNSYGYGWVRQAPGKGPEWVSVIYSDGRRTFYGDSVDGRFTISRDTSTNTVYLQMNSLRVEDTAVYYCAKGRAAGTFDSWGQGTLVTVSS | ND / ND / ND | ND |
| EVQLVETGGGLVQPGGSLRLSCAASGFTLNSYGYTWVRQAPGKGPEWVSVIYSDGRRTFYGDMVKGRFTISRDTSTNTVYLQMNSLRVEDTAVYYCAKGRAAGTFDSWGQGTLVTVSS | ND / ND / ND | ND |
| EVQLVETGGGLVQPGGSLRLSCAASGFTLNSYGESWVRQAPGKGPEWVSVIYSDGRRTFYGDSTKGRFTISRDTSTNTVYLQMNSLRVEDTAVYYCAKGRAHGTFDSWGQGTLVTVSS | 3.43 / ND / ND | 3.43 |
| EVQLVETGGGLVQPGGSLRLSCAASGFTLNSYGDSWVRQAPGKGPEWVSYIYSDGRRTFYGDSVVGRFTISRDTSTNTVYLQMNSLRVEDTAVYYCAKGRAAGTFDSWGQGTLVTVSS | 4.80 / 5.11 / ND | 4.95 |
| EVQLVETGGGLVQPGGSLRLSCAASGFTLNSYGVSWVRQAPGKGPEWVSVIYSDGRRTFYGDSVKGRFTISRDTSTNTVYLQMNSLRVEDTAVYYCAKFRAAGTFTSWGQGTLVTVSS | ND / ND / ND | ND |
| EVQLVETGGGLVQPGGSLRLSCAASGFTSNSYGRSWVRQAPGKGPEWVSVIYSDGRRTFYGDSVKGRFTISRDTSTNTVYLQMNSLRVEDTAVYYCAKGRAAGTFLSWGQGTLVTVSS | ND / 3.88 / ND | 3.88 |
| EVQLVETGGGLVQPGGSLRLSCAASGFTMNSYGFSWVRQAPGKGPEWVSVIYSDGRRTFYGHSVKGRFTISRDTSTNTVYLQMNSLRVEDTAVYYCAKGRAAGTFDSWGQGTLVTVSS | ND / ND / ND | ND |
| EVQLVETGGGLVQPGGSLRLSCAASGFTRNSYGWSWVRQAPGKGPEWVSVIYSDGRRTFYGDSVKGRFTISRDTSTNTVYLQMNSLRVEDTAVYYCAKGRAAGTFDAWGQGTLVTVSS | ND / ND / ND | ND |
| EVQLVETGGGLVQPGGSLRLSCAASGFTLNSYGASWVRQAPGKGPEWVSWIYSDGRRTFYGDSVKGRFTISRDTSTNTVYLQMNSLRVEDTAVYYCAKGRVAGTFDSWGQGTLVTVSS | ND / ND / ND | ND |
| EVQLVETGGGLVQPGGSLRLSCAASGFTLNSYGFSWVRQAPGKGPEWVSVIYSDGANTFYGDSVKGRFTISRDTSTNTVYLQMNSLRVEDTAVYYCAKGRAAGTFDSWGQGTLVTVSS | ND / ND / 4.35 | 4.35 |
| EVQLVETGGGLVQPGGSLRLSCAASGFTLNSYGGSWVRQAPGKGPEWVSVIPSDGRWTFYGDSVKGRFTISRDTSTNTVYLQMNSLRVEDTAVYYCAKGRAAGTFDSWGQGTLVTVSS | ND / 3.79 / ND | 3.79 |
| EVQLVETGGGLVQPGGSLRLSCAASLFTLNSYGYSWVRQAPGKGPEWVSVIYSDGRRTFDGDSVKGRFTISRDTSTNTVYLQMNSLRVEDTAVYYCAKGRAAGTFDSWGQGTLVTVSS | ND / ND / ND | ND |
| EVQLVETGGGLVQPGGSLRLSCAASGFTLNSYGASWVRQAPGKGPEWVSVIYSDGRRTFYGDSVKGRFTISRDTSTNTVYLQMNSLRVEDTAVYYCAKGRAAGTLCSWGQGTLVTVSS | ND / ND / ND | ND |
| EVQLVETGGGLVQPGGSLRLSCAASGETLNSQGFSWVRQAPGKGPEWVSVIYSDGRRTFYGDSVKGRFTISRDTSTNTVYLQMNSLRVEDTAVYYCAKGRAAGTFDSWGQGTLVTVSS | ND / ND / ND | ND |
| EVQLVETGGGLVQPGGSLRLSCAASGFTLNSYGASWVRQAPGKGPEWVSVIYSDGRRTFYGDSVKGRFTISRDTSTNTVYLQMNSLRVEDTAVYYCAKGRAAGTFDNWGQGTLVTVSS | ND / 2.79 / ND | 2.79 |
| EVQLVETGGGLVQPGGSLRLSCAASGFTLCSYGDSWVRQAPGKGPEWVSVIYSDGRRQFYGDSVKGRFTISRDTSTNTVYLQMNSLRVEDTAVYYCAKGRAAGTFDSWGQGTLVTVSS | ND / ND / ND | ND |
| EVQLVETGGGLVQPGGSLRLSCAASGFTLNSYGLSWVRQAPGKGPEWVSVIYSDGRRTFYGWSVKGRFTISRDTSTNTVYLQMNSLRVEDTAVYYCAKGRAAGTFHSWGQGTLVTVSS | ND / ND / ND | ND |
| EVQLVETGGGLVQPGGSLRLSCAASTFTLYSYGDSWVRQAPGKGPEWVSVIYSDGRRTFYGDSVKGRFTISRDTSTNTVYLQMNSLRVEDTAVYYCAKGRAAGTFDSWGQGTLVTVSS | ND / ND / ND | ND |
| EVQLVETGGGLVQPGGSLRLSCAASGFTLNSYGSSWVRQAPGKGPEWVSVIYSDGRRTFYGRSVKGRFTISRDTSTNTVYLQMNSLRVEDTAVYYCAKGWAAGTFDSWGQGTLVTVSS | ND / ND / 3.67 | 3.67 |
| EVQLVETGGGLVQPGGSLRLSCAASGFTLNSYGPSWVRQAPGKGPEWVSVIYSGGRRTFYGDSVKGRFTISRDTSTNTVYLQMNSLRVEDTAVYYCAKGRAAGLFDSWGQGTLVTVSS | ND / ND / ND | ND |
| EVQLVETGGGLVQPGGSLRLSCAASGFTLNSYCYSWVRQAPGKGPEWVSVIYSDGRRTFYGDSVKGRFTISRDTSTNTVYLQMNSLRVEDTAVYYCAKGRAIGTFDSWGQGTLVTVSS | ND / ND / ND | ND |
| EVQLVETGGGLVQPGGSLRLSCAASGFTLNSYGCSWVRQAPGKGPEWVSVMYSDGRRTFYGDSVKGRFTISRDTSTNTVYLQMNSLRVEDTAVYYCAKGRAAGTKDSWGQGTLVTVSS | ND / ND / ND | ND |
| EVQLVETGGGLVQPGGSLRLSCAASGFTLNSYGGSWVRQAPGKGPEWVSVIYSDGRRTFYHDSVVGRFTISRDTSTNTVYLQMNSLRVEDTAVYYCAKGRAAGTFDSWGQGTLVTVSS | ND / ND / 4.72 | 4.72 |

Values reported by Engelhart et al. 2022, doi:10.1038/s41597-022-01779-4 (FLAb copy).